From ChEMBL document CHEMBL1152554, “Synthesis and pharmacological evaluation of 6-naltrexamine analogs for alcohol cessation” (Bioorg Med Chem, 2009)

Amino acid sequences for entries named in this document (tags omitted). A change or cut given only in a name is not applied to a line headed by its entry.
UniProt P41146: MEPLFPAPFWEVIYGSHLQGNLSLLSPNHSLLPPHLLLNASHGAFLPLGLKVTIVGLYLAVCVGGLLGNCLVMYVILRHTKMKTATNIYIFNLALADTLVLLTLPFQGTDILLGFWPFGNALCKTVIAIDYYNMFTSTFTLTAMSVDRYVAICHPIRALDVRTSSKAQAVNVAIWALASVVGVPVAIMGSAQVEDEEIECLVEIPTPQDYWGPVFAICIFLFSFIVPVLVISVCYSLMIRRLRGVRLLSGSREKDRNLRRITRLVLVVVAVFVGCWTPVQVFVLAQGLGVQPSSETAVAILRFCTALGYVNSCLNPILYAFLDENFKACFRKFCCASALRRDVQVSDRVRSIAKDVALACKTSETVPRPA

Target: Nociceptin receptor (Homo sapiens, UniProt P41146)
Experiment: Activity at NOP expressed in HEK293 cells assessed as stimulation of [35S]GTPgammaS binding relative to basal level
Format: functional, cell-based

SMILES: CN(C(=O)Cc1ccc(Cl)c(Cl)c1)C1CCCCC1N1CCCC1 (stereo unspecified)
- Emax: 0%
